{
  "source": "ChEMBL document CHEMBL2346591",
  "about": "“Oxadiazole-isopropylamides as potent and noncovalent proteasome inhibitors” (J Med Chem, 2013)",
  "assay": "Inhibition of chymotrypsin-like activity of rabbit 20s proteasome beta5 subunit using Suc-Leu-Leu-Val-Tyr-AMC as substrate after 1 hr by fluorescence assay",
  "set-up": "species or system Oryctolagus cuniculus",
  "procedure,_shortened": "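Purified rabbit 20S proteasome at 1 nM, with or without compound, incubated 1 h at 37 °C in 50 mM Tris-HCl pH 7.6 with fluorogenic AMC peptide: 20 µM […] (CT-L), Bz-Val-Gly-Arg-AMC (T-L) or Z-Leu-Leu-Glu-AMC (PGPH-L).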",
  "data": [
    {"smiles": "CCCc1ccc(OCC(=O)N(Cc2nc(-c3cncnc3)no2)C(C)C)cc1", "values": [
      {"measurement": "IC50", "result": 32, "unit": "nM"}
    ]}
  ]
}
